Test: in vitro
Conditions: PAMPA

| Papp at 5 h, 100 µM [×10⁻⁶ cm/s] | SMILES |
| --- | --- |
| > 5 | O=c1c2ccccc2c(-c2ccccc2)nn1CO[C@@H]1C=CO[C@H](CO)[C@@H]1O |
| > 5 | O=c1c2ccccc2cnn1CO[C@@H]1C=CO[C@H](CO)[C@@H]1O |

From ChEMBL document CHEMBL5579863, “Galectin-8N-Selective 4-Halophenylphthalazinone-Galactals Double π-Stack in a Unique Pocket” (ACS Med Chem Lett, 2024)
